Drawing on publication PMC9814544, “A small-molecule inhibitor of lectin-like oxidized LDL receptor-1 acts by stabilizing an inactive receptor tetramer state” (Communications Chemistry, 2020), this text covers stoichiometry N for one substance.

For assay [1], the target named is LOX-1 129-273 (human) (UniProt P78380). In words: ESI-MS under denaturing conditions; LOX129 diluted to 1 uM in 50/50 water/acetonitrile with 0.5% formic acid; chains to covalent dimer.
Assay [2] has the same target. In words: native MS; no ligand; 10 uM LOX129 in 200 mM NH4Ac pH 7.5, 5% isopropanol, room temperature, Vc = 40 V; species seen: dimer (main) and tetramer (trace).

One may read the stoichiometry N as the number of molecules, sites or subunits per partner or assembly. Consider “LOX-1 129-273 (from UniProt P78380 129-273) (domain or fragment)”, for which the stoichiometry N with LOX-1 129-273 (human) [1] and with LOX-1 129-273 (human) [2] was 2 throughout.
